The values below come from publication PMC4376794.

Experiment [1] deals with STRA6-GFP-c-Myc-His6 (STRA6-HRV3C-eGFP-Myc-His6) (human). Description: SPR; holo-RBP (retinol-loaded, 6.9-219.3 uM) flowed over STRA6-GFP captured by its c-Myc tag on immobilised anti-c-Myc antibody (CM5, Biacore 3000); anti-HA antibody reference cell; room temperature; steady-state responses fitted to one site plus a linear low-affinity component; triplicate. Background: Surface plasmon resonance follows binding to a sensor surface in real time, without labels.

For experiment [2] the target is unchanged. The experiment is described as follows: SPR; apo-RBP (6.9-219.3 uM) flowed over STRA6-GFP captured by its c-Myc tag on immobilised anti-c-Myc antibody (CM5, Biacore 3000); anti-HA antibody reference cell; room temperature; steady-state responses fitted to one site plus a linear low-affinity component; triplicate.

In general, stoichiometry N refers to a count of units in the complex or per binding partner.

For “retinol binding protein (His-RBP) (from UniProt P02753 19-201) (ligand)”, the stoichiometry N in experiment [1] was found to be 0.64; in experiment [2], 0.71.
